# Experimental data published in patent US5616570A, “Use of non-absorbable synthetic sulfated polysaccharides to decrease cholesterol absorbtion” (priority 1994, dated 1997).
# Target: T1, Human pancreatic cholesterol esterase (Homo sapiens, UniProt P19835)
# T1 construct: Human pancreatic cholesterol esterase was purified as described by Bosner et al; from tissue; host or cells: human pancreas (purified to homogeneity)
# T1 sequence (P19835 21-753): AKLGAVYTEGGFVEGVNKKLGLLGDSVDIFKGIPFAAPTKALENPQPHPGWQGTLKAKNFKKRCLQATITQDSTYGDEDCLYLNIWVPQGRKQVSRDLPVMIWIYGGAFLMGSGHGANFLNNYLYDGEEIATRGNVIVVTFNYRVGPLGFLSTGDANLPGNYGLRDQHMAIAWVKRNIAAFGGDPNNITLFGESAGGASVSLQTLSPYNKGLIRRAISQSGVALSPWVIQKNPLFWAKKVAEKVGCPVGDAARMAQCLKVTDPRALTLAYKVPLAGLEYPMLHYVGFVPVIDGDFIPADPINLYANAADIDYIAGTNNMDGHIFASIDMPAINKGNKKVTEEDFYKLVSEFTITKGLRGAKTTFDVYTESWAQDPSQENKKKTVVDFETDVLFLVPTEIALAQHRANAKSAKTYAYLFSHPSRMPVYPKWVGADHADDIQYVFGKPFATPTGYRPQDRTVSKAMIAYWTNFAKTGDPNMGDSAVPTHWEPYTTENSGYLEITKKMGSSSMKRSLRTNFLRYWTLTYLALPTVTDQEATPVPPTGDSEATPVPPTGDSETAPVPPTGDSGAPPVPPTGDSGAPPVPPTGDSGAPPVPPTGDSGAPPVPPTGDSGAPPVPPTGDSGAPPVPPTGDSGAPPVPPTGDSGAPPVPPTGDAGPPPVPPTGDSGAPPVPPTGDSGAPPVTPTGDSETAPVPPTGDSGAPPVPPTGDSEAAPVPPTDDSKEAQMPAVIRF
# Assay: Inhibition of human pancreatic cholesterol esterase, cholesteryl 14C-oleate hydrolysis
# Assay type: biochemical
# Details: molar value based on assumed polymer molecular weight
substance,measurement,value
"agar [native (unsulfated) agar, reference compound]",IC50,0.03 µM
